Nrf2 ARE act – activators of Nrf2 (ARE) signaling; AREc32 ARE-luciferase reporter (MCF7-derived line), luminescence, 24 h; 410,000 compounds, 0.31% hits; Potency, µM (highest dose often 46.1 µM), without a hit: at the top dose activation, hits mostly activators; AID 624171; note: potency is the fitted concentration of half-maximal effect; % of control where 0% means no effect; nearly all actives have a fitted effect of over 65% in size
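Reporter line AREc32 (ARE-Fluc), seeded overnight in OPTI-MEM with 5% FBS; compound pin-transferred, 24 hr at 37 deg C, 5% CO2; luminescent read-out.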
miR-21 FLuc – miR-21 reporter, rising signal; HeLa miR-21 FLuc reporter, luciferase, 48 h; Potency, µM (highest dose often 38.3 µM), for the others: top-dose reporter change, positive = more light; 340,000 tested, under 10 active; AID 2288; active = well fitted rising curve with a large enough effect; inconclusive = small, poorly fitted or top-dose-only effect; inactive = no such curve, though single readings can be large or run the other way;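 further: % of control where 0% means no effect; miR-21 action dims this reporter so a rising signal means less miR-21 action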
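HeLa miR-21-FLuc reporter line, endogenous miR-21; 2000 cells/well in DMEM/10% FBS; compound titration up to ~40uM final, 48 h, 37 degree Celsius; luciferase detection reagent, 15 min lysis, CCD luminescence.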
Nrf2 inh – inhibitors of Nrf2 signaling | AID 504444 | A549 ARE-Fluc reporter, luciferase luminescence, 18-24 h | Potency, µM (doses to about 46 µM), inactives show top-dose activity change, negative = inhibition, actives largely listed as inhibitors | 360,000 compounds, 2.1% hits; note: potency is the fitted concentration of half-maximal effect; % is set by controls: 0 for no effect and ±100 for the full control effect; nearly all actives have a fitted effect of over 60% in size
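Cells were seeded and rested 2 h, then exposed to compounds for 18-24 h. CellTiter-Fluor was read first as a viability measure. BugLite was added 15 min before the final luminescent read of ARE-luciferase activity in A549 cells.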
A549 viability – kills or reduces viability of A549 cells in Nrf2 counter-screen | A549 ARE-Fluc cells, CellTiter-Fluor viability, 18-24 h | Potency, µM (series often up to 46 µM), for the others: at the top dose activity change, negative = cytotoxicity, actives largely listed as inhibitors | 390,000 compounds, 0.16% hits; note: potency is the fitted concentration of half-maximal effect; % is set by controls: 0 for no effect and ±100 for the full control effect
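A549 ARE_Fluc cells in 5% FBS OPTI-MEM were exposed to compounds in concentration-response for 18-24 h at 37 deg C. Viability was read by CellTiter-Fluor fluorescence (Ex 405/Em 525) after 30 min, before the luciferase read.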
GRP78 ERSR act – inducers of ER stress response in human glioma cells. AID 602332. Potency, µM, without a hit: at the top dose activation, hits mostly activators. 420,000 compounds, 0.02% hits. U87-MG GRP78 promoter luciferase reporter, 16 h; note: potency is the fitted concentration of half-maximal effect; series mostly up to about 76 µM; % of control where 0% means no effect; nearly all actives have a fitted effect of over 35% in size
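Stably transfected U87-MG glioma cells carrying a GRP78-based luciferase sensor; 16 h compound incubation. Luminescence end-point read 10 min after Bright-Glo addition at room temperature.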
Mito fusion act – mitochondrial division inhibition or fusion activation | S. cerevisiae fusion-defective mutant growth rescue, CellTiterGlo 48 h | Potency, µM (top dose mostly 46.1 µM), for the others: top-dose growth rescue (activation), most hits filed as activators | 320,000 compounds, 0.23% hits; note: potency is the fitted concentration of half-maximal effect; % of control where 0% means no effect; nearly all actives have a fitted effect of over 45% in size
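S. cerevisiae fusion-defective temperature-sensitive mutants (e.g. fzo1-1, mgm1-5) grown 48 h at 37C in YPEG (ethanol/glycerol non-fermentable) medium with 23 nl compound per well; growth rescue read as CellTiterGlo luminescence.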
* = called active by the depositor; u = inconclusive; x = no result; [ ] = another dose, or the depositor's remark. This is a sample that favours compounds with a hit; in the whole collection about 2.3% have one here. Calls come from the whole dose curve; as a rule, active = well fitted curve in the direction sought with a large enough effect; inconclusive = small, poorly fitted or top-dose-only effect, or another doubt; inactive = no such curve, though single readings can be large; an effect the other way counts as inactive or inconclusive.

The opening four compounds as a preview:
1	CC1CCC(NS(=O)(=O)c2cccc3nsnc23)CC1 (configuration not stated)
2	C=CCNC(=O)c1cc2c(=O)n3cc(C)ccc3nc2nc1NCC1CCCO1 (configuration not stated)
3	CCOC(=O)CN(C(=O)CN1CCC(n2nnc3cc(C)ccc32)CC1)c1ccccc1
4	Cc1ccc2c(c1)nnn2C1CCN(CC(=O)N(c2ccccc2)c2ccccc2)CC1
assay / compound,1,2,3,4
Nrf2 ARE act,0%,x,-1%,2%
miR-21 FLuc,-7%,2%,1%,13%
Nrf2 inh,-8%,x,12%,15µM*
A549 viability,0%,x,8%,u
GRP78 ERSR act,-5%,x,-4%,-5%
Mito fusion act,10%,-2%,-2%,-9%

The list itself, from the first entry:
1	CC1CCC(NS(=O)(=O)c2cccc3nsnc23)CC1 (configuration not stated)
2	C=CCNC(=O)c1cc2c(=O)n3cc(C)ccc3nc2nc1NCC1CCCO1 (configuration not stated)
3	CCOC(=O)CN(C(=O)CN1CCC(n2nnc3cc(C)ccc32)CC1)c1ccccc1
4	Cc1ccc2c(c1)nnn2C1CCN(CC(=O)N(c2ccccc2)c2ccccc2)CC1
5	COc1cccc(NC(=O)CN(C)S(=O)(=O)c2ccc3c(c2)n(C)c(=O)c(=O)n3C)c1
6	CC(C)(C)CNc1nc(C#N)nc(Nc2ccccc2)n1
7	O=c1[nH]ncc(N/N=C\c2cccs2)c1Cl
8	O=c1[nH]ncc(N/N=C\c2ccncc2)c1Cl
assay / compound,1,2,3,4,5,6,7,8
Nrf2 ARE act,0%,x,-1%,2%,-1%,x,4.5µM*,6%
miR-21 FLuc,-7%,2%,1%,13%,-2%,x,-25%,-18%
Nrf2 inh,-8%,x,12%,15µM*,3%,18µM*,-8%,13%
A549 viability,0%,x,8%,u,-1%,u,1%,2%
GRP78 ERSR act,-5%,x,-4%,-5%,-2%,x,7%,-4%
Mito fusion act,10%,-2%,-2%,-9%,0%,x,2%,-2%

9	COC(=O)/C(=C\Nc1ccc(OC)cc1)NC(=O)c1ccc(Cl)cc1Cl
10	CN(C(=O)c1nc(-c2cccc(F)c2)n2c1CCCCC2)c1ccccc1F
11	CCOc1ccc(CCNC(=O)c2nc(-c3cccc(F)c3)n3c2CCCCC3)cc1OCC
12	CC(NC(=O)C1CCCC1)c1ccc(Br)cc1 (configuration not stated)
13	O=C(NCCNc1ccnc2cc(Cl)ccc12)c1ccccc1F
14	CCCCOc1ccc(-c2ncc(N)cn2)cc1
15	Cc1nc(Nc2ccccc2F)c2oc3ccccc3c2n1
16	Cc1nc(Nc2ccccc2O)c2oc3ccccc3c2n1
assay / compound,9,10,11,12,13,14,15,16
Nrf2 ARE act,0%,4%,0%,3%,4%,5%,3.2µM*,19%
miR-21 FLuc,-4%,-2%,-1%,0%,16%,-38%,-34%,0%
Nrf2 inh,27%,u,21µM*,26µM*,18µM*,u,u,7%
A549 viability,0%,10%,u,17%,-10%,u,4%,10%
GRP78 ERSR act,-7%,-3%,-2%,-1%,-3%,5%,0%,-4%
Mito fusion act,-7%,x,x,4%,3%,7%,-9%,-8%

17	c1ccc2c(c1)nnn2-c1ncnc2sccc12
18	Cc1cc(-n2nnc3ccccc32)nc2ccccc12
19	COc1ccc(-c2cc(C(F)(F)F)n3nc(C(=O)N4CCCCC4)cc3n2)cc1OC
20	COc1ccc(-c2cc(C(F)(F)F)n3nc(C(=O)N4CCCCC4)cc3n2)cc1
21	O=[N+]([O-])c1ccc(N2CCN(C(=S)c3cccc([N+](=O)[O-])c3)CC2)cc1
22	COc1cccc(-c2nc(C(N)=O)c3[nH]c(=O)n(-c4cccc(Cl)c4)c3n2)c1OC
23	COc1ccc(-c2nc(C(N)=O)c3[nH]c(=O)n(-c4cccc(Cl)c4)c3n2)cc1OC
24	O=C(COc1ccc(Cl)cc1Cl)N/N=C/c1ccc[nH]1
assay / compound,17,18,19,20,21,22,23,24
Nrf2 ARE act,4µM*,10%,0%,0%,-1%,5%,4%,9%
miR-21 FLuc,-27%,-20%,-7%,-5%,6%,-7%,4%,-8%
Nrf2 inh,u,u,26µM*,u,u,-1%,26µM*,9.2µM*
A549 viability,1%,-11%,-19%,-4%,u,3%,u,u
GRP78 ERSR act,2%,1%,-2%,2%,-1%,-2%,-1%,1%
Mito fusion act,-1%,8%,3%,-1%,6%,-6%,4%,1%

25	Cc1c(Cl)cccc1NC(=O)CCC(=O)N/N=C/c1ccc[nH]1
26	O=C(COc1ccccc1-c1nc(-c2ccccc2)no1)Nc1ccccc1[N+](=O)[O-]
27	CCn1c2ccccc2c2cc(CN3CCOc4ccc(C(O)c5cccnc5)cc4C3)ccc21 (configuration not stated)
28	COC(=O)c1c(C)oc2ccc(N(C(=O)c3ccncc3)S(=O)(=O)c3ccccc3)cc12
29	COC(=O)c1c(C)oc2ccc(N(C(=O)c3ccncc3)S(=O)(=O)c3ccc4ccccc4c3)cc12
30	COC(=O)c1c(C)oc2ccc(N(C(=O)c3ccncc3)S(=O)(=O)c3ccc(C)cc3)cc12
31	COC(=O)c1c(C)oc2ccc(N(C(=O)c3ccncc3)S(=O)(=O)c3ccc(C)cc3C)cc12
32	Cc1ccc(C2CC2c2n[nH]c(=S)n2-c2cccc(C)c2)cc1 (configuration not stated)
assay / compound,25,26,27,28,29,30,31,32
Nrf2 ARE act,0%,22%,x,3%,3%,0%,3%,3%
miR-21 FLuc,-1%,15%,x,20%,28%,26%,-3%,4%
Nrf2 inh,18µM*,18µM*,x,x,23µM*,10µM*,6.5µM*,-13%
A549 viability,u,4%,x,u,-23%,u,u,-10%
GRP78 ERSR act,-2%,1%,-3%,-4%,3%,-2%,-1%,-3%
Mito fusion act,-1%,x,x,12%,u,u,22%,6%

33	COc1ccc(CCNC(=O)Cn2c(=O)n(-c3ccc(C)c(C)c3)c(=O)c3c(C)c(C)sc32)cc1OC
34	CN(C)S(=O)(=O)c1ccc(NC(=O)CSc2nc3ccccc3n2-c2ccccc2)cc1
35	CN(C)S(=O)(=O)c1cccc(NC(=O)CSc2nc3ccccc3n2-c2ccccc2)c1
36	CN(C)S(=O)(=O)c1cccc(NC(=O)CSc2nncn2C)c1
37	Cc1cc(C)nc(SCC(=O)Nc2cccc(S(=O)(=O)N(C)C)c2)n1
38	NS(=O)(=O)c1ccc(NC(=O)CSc2nc3ccccc3n2-c2ccccc2)cc1
39	COc1ccc(S(=O)(=O)NNC(=O)Nc2ccccc2OC)c(OC)c1
40	CCN1C(=O)C(CC(=O)NCCc2ccccc2)N(NC(=O)c2cccnc2)C1=S (configuration not stated)
41	C[C@H](NC(=O)N1CCn2c1nc1ccccc12)C(=O)NC1CCCCC1
42	CC(C)[C@H](NC(=O)N1CCn2c1nc1ccccc12)C(=O)NC1CCCCC1
assay / compound,33,34,35,36,37,38,39,40,41,42
Nrf2 ARE act,1%,4%,2%,0%,4%,2%,-2%,-1%,0%,0%
miR-21 FLuc,6%,25%,12%,0%,-1%,-10%,-2%,4%,2%,4%
Nrf2 inh,4%[9.27 µM],21µM*,18µM*,8%,18µM*,u,-1%,-3%,1%,21µM*
A549 viability,-15%,1%,u,-6%,-5%,u,2%,-3%,-5%,u
GRP78 ERSR act,-2%,-4%,-3%,-2%,-2%,-4%,1%,2%,-2%,1%
Mito fusion act,x,13%,18%,-4%,13%,-6%,-2%,6%,0%,0%

Screening data from PubChem.
